The chains behind the UniProt entries cited, without tags or fusion partners.
UniProt P08172, whole entry: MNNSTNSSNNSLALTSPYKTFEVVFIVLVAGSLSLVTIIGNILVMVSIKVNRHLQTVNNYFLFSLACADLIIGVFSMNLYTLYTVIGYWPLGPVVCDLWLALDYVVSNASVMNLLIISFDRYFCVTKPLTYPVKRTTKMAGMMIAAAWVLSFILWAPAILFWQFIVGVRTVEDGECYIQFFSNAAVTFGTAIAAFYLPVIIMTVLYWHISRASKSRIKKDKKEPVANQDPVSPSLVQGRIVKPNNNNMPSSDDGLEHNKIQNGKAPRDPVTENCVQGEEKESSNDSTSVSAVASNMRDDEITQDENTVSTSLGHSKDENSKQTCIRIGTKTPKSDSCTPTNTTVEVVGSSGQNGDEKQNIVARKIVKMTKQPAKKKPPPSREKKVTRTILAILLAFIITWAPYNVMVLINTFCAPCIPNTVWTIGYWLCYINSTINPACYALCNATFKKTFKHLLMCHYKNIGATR
UniProt P08173, whole entry: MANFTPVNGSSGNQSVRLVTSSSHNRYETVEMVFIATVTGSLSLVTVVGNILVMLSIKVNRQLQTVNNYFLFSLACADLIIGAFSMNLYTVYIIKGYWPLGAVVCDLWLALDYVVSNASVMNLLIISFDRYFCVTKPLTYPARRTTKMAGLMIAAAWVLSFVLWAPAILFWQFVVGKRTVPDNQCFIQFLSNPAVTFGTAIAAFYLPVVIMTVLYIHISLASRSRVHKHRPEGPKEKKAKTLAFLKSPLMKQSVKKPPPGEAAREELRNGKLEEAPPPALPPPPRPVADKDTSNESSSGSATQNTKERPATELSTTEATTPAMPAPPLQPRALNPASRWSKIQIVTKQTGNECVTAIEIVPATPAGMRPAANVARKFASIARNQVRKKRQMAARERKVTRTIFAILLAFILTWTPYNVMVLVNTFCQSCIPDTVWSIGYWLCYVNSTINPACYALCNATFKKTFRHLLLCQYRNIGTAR
UniProt P20309, whole entry: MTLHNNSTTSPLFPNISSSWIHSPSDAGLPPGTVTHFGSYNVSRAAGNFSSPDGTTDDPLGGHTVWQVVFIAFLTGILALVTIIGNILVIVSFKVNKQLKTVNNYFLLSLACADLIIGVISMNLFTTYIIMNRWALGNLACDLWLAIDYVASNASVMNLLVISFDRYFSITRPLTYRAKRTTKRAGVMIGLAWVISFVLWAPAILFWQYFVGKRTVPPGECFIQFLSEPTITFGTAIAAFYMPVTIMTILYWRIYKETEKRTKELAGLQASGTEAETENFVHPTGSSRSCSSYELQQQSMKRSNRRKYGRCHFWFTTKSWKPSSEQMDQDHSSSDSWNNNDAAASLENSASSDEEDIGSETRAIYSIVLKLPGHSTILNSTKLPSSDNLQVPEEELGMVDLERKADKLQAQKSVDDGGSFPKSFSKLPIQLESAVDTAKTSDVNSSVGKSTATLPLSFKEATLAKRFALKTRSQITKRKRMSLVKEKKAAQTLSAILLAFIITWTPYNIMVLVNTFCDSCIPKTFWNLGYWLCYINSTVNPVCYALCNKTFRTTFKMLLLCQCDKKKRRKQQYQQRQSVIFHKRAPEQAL
UniProt P11229, whole entry: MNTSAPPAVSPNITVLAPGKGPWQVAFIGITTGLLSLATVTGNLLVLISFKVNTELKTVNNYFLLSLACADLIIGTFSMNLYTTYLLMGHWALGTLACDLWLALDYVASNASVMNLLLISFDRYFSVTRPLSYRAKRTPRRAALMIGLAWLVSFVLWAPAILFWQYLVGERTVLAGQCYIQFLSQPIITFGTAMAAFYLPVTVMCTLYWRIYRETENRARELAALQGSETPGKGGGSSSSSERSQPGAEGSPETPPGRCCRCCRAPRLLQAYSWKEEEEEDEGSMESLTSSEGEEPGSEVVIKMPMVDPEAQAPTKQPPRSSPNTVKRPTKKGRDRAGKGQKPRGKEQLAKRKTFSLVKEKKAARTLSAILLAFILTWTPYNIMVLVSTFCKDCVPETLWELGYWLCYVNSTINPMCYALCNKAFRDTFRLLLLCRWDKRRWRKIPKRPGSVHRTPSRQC

According to patent US7786308B2 (priority 2005, dated 2010):

Assays:
Type in all cases: cell-based
Conditions in all cases: 100% efficacy is the maximum response obtained with the Carbachol control
M2 muscarinic receptor = M2 muscarinic receptor (Homo sapiens, UniProt P08172); assay: Functional mobilization of intracellular calcium (FLIPR), M2-CHO cells
M4 muscarinic receptor = M4 muscarinic receptor (Homo sapiens, UniProt P08173); assay: Functional mobilization of intracellular calcium (FLIPR), M4-CHO cells
M3 muscarinic receptor = M3 muscarinic receptor (Homo sapiens, UniProt P20309); assay: Functional mobilization of intracellular calcium (FLIPR), M3-CHO cells
M1 muscarinic receptor = M1 muscarinic receptor (Homo sapiens, UniProt P11229); assay: Functional mobilization of intracellular calcium (FLIPR), M1-CHO cells

SMILES	M2 Efficacy (M2 muscarinic receptor)	M4 Efficacy (M4 muscarinic receptor)	M3 Efficacy (M3 muscarinic receptor)	M1 Efficacy (M1 muscarinic receptor)
CC(=O)N(c1ccc(F)cc1)C1CCN(C2CC3CCC(C2)N3C(=O)OCC(C)C)CC1 (centres unmarked)	+ (efficacy was calculated to be less than 25%)	+ (efficacy was calculated to be less than 25%)	+ (efficacy was calculated to be less than 25%)	++ (efficacy was calculated to be from 100% to 25%)
CC(=O)N(c1ccc(F)cc1)C1CCN(C2CC3CCC(C2)N3C(=O)OC2CCC2)CC1 (centres unmarked)	+ (efficacy was calculated to be less than 25%)	+ (efficacy was calculated to be less than 25%)	+ (efficacy was calculated to be less than 25%)	++ (efficacy was calculated to be from 100% to 25%)
CCOC(=O)N1CCC(N2CCC(N(C(C)=O)c3ccc(F)cc3)CC2)CC1	+ (efficacy was calculated to be less than 25%)	++ (efficacy was calculated to be from 100% to 25%)	++ (efficacy was calculated to be from 100% to 25%)	++ (efficacy was calculated to be from 100% to 25%)
CC(=O)N(c1ccc(F)cc1)C1CCN(C2CC3CCC(C2)N3S(=O)(=O)c2ccccc2)CC1 (centres unmarked)	+ (efficacy was calculated to be less than 25%)	+ (efficacy was calculated to be less than 25%)	+ (efficacy was calculated to be less than 25%)	++ (efficacy was calculated to be from 100% to 25%)
CCCNC(=O)N(c1ccc(F)cc1)C1CCN(C2CCOCC2)CC1	+ (efficacy was calculated to be less than 25%)	+ (efficacy was calculated to be less than 25%)		+ (efficacy was calculated to be less than 25%)
CCOC(=O)N1C2CCC1CC(N1CCC(N(C(C)=O)c3ccc(C)c(C)c3)CC1)C2 (centres unmarked)	+ (efficacy was calculated to be less than 25%)	++ (efficacy was calculated to be from 100% to 25%)	++ (efficacy was calculated to be from 100% to 25%)	++ (efficacy was calculated to be from 100% to 25%)
CCCCOC(=O)N1C2CCC1CC(N1CCC(N(C(C)=O)c3ccc(F)cc3)CC1)C2 (centres unmarked)	+ (efficacy was calculated to be less than 25%)	+ (efficacy was calculated to be less than 25%)	+ (efficacy was calculated to be less than 25%)	++ (efficacy was calculated to be from 100% to 25%)
CCON=C1CCC(N2CCC(N(C(=O)OC)c3ccc(F)cc3)CC2)CC1 (centres unmarked)	++ (efficacy was calculated to be from 100% to 25%)	++ (efficacy was calculated to be from 100% to 25%)	+ (efficacy was calculated to be less than 25%)	++ (efficacy was calculated to be from 100% to 25%)
CCCNC(=O)N(c1ccc(F)cc1)C1CCN(C2CC3CCC(C2)N3C(=O)OCC)CC1 (centres unmarked)	++ (efficacy was calculated to be from 100% to 25%)	++ (efficacy was calculated to be from 100% to 25%)		++ (efficacy was calculated to be from 100% to 25%)
CCOC(=O)N1C2CCC1CC(N1CCC(N(C(C)=O)c3cccc(C(=O)OC)c3)CC1)C2 (centres unmarked)	+ (efficacy was calculated to be less than 25%)	+ (efficacy was calculated to be less than 25%)	+ (efficacy was calculated to be less than 25%)	++ (efficacy was calculated to be from 100% to 25%)
CCOC(=O)N1C2CCC1CC(N1CCC(N(C(C)=O)c3cccc(F)c3)CC1)C2 (centres unmarked)	+ (efficacy was calculated to be less than 25%)	++ (efficacy was calculated to be from 100% to 25%)	+ (efficacy was calculated to be less than 25%)	++ (efficacy was calculated to be from 100% to 25%)
CCC1CCC(N2CCC(N(C(=O)OC)c3ccc(F)cc3)CC2)CC1 (centres unmarked)	+ (efficacy was calculated to be less than 25%)	+ (efficacy was calculated to be less than 25%)	+ (efficacy was calculated to be less than 25%)	++ (efficacy was calculated to be from 100% to 25%)
CCOC(=O)N1C2CCC1CC(N1CCC(N(C(C)=O)c3cccc(Cl)c3)CC1)C2 (centres unmarked)	+ (efficacy was calculated to be less than 25%)	++ (efficacy was calculated to be from 100% to 25%)	++ (efficacy was calculated to be from 100% to 25%)	++ (efficacy was calculated to be from 100% to 25%)
CC(=O)N(c1ccc(F)cc1)C1CCN(C2CC3CCC(C2)N3C(=O)N(C)C)CC1 (centres unmarked)	+ (efficacy was calculated to be less than 25%)	+ (efficacy was calculated to be less than 25%)	+ (efficacy was calculated to be less than 25%)	+ (efficacy was calculated to be less than 25%)
CCOC(=O)N1C2CCC1CC(N1CCC(N(C(C)=O)c3ccc(F)cc3)CC1)C2 (centres unmarked)	+ (efficacy was calculated to be less than 25%)	++ (efficacy was calculated to be from 100% to 25%)	+ (efficacy was calculated to be less than 25%)	++ (efficacy was calculated to be from 100% to 25%)
CCOC(=O)N1C2CCC1CC(N1CCC(N(C(C)=O)c3ccc(F)cc3F)CC1)C2 (centres unmarked)	+ (efficacy was calculated to be less than 25%)	+ (efficacy was calculated to be less than 25%)	++ (efficacy was calculated to be from 100% to 25%)	++ (efficacy was calculated to be from 100% to 25%)
COCCOC(=O)N1C2CCC1CC(N1CCC(N(C(C)=O)c3ccc(F)cc3)CC1)C2 (centres unmarked)	+ (efficacy was calculated to be less than 25%)	++ (efficacy was calculated to be from 100% to 25%)	+ (efficacy was calculated to be less than 25%)	++ (efficacy was calculated to be from 100% to 25%)
CCOC(=O)N1C2CCC1CC(N1CCC(N(C(C)=O)c3ccccc3C)CC1)C2 (centres unmarked)	+ (efficacy was calculated to be less than 25%)	++ (efficacy was calculated to be from 100% to 25%)	+ (efficacy was calculated to be less than 25%)	++ (efficacy was calculated to be from 100% to 25%)
CCOC(=O)N1C2CCC1CC(N1CCC(N(C(C)=O)c3ccc(Cl)cc3)CC1)C2 (centres unmarked)	+ (efficacy was calculated to be less than 25%)	++ (efficacy was calculated to be from 100% to 25%)	++ (efficacy was calculated to be from 100% to 25%)	++ (efficacy was calculated to be from 100% to 25%)
CCCNC(=O)N(c1ccc(F)cc1)C1CCN(CC2CC3CCC2C3)CC1 (centres unmarked)	+ (efficacy was calculated to be less than 25%)	+ (efficacy was calculated to be less than 25%)		+ (efficacy was calculated to be less than 25%)
COC(=O)N(c1ccc(F)cc1)C1CCN(C2CC3CCC(C3)C2)CC1 (centres unmarked)	+ (efficacy was calculated to be less than 25%)	++ (efficacy was calculated to be from 100% to 25%)	+ (efficacy was calculated to be less than 25%)	++ (efficacy was calculated to be from 100% to 25%)
CCCNC(=O)N(c1ccc(F)cc1)C1CCN(C2CCN(C(=O)OCC)CC2)CC1	+ (efficacy was calculated to be less than 25%)	++ (efficacy was calculated to be from 100% to 25%)		++ (efficacy was calculated to be from 100% to 25%)
CCOC(=O)N1C2CCC1CC(N1CCC(N(C(C)=O)c3ccc(-c4ccccc4)cc3)CC1)C2 (centres unmarked)	+ (efficacy was calculated to be less than 25%)	++ (efficacy was calculated to be from 100% to 25%)	+ (efficacy was calculated to be less than 25%)	++ (efficacy was calculated to be from 100% to 25%)
CCC(=O)N1C2CCC1CC(N1CCC(N(C(C)=O)c3ccc(F)cc3)CC1)C2 (centres unmarked)	+ (efficacy was calculated to be less than 25%)	+ (efficacy was calculated to be less than 25%)	+ (efficacy was calculated to be less than 25%)	++ (efficacy was calculated to be from 100% to 25%)
CC(=O)N(c1ccc(F)cc1)C1CCN(C2CC3CCC(C2)N3C(=O)OCC(C)(C)C)CC1 (centres unmarked)	+ (efficacy was calculated to be less than 25%)	+ (efficacy was calculated to be less than 25%)	+ (efficacy was calculated to be less than 25%)	++ (efficacy was calculated to be from 100% to 25%)
CC#CCOC(=O)N1C2CCC1CC(N1CCC(N(C(C)=O)c3ccc(F)cc3)CC1)C2 (centres unmarked)	++ (efficacy was calculated to be from 100% to 25%)	++ (efficacy was calculated to be from 100% to 25%)	++ (efficacy was calculated to be from 100% to 25%)	++ (efficacy was calculated to be from 100% to 25%)
CCOC(=O)N1C2CCC1CC(N1CCC(N(C(C)=O)c3ccc(OC)cc3)CC1)C2 (centres unmarked)	+ (efficacy was calculated to be less than 25%)	++ (efficacy was calculated to be from 100% to 25%)	+ (efficacy was calculated to be less than 25%)	++ (efficacy was calculated to be from 100% to 25%)
CCCNC(=O)N(c1ccc(F)cc1)C1CCN(C2CC3CCC2C3)CC1 (centres unmarked)	+ (efficacy was calculated to be less than 25%)	+ (efficacy was calculated to be less than 25%)		+ (efficacy was calculated to be less than 25%)
CCCON=C1CCC(N2CCC(N(C(C)=O)c3ccc(F)cc3)CC2)CC1 (centres unmarked)	+ (efficacy was calculated to be less than 25%)	++ (efficacy was calculated to be from 100% to 25%)		++ (efficacy was calculated to be from 100% to 25%)

This is a selection: effects in other tests are not listed, and their absence says nothing.
